Data published in US20170184612A1, “USE OF LEUKOCYTES AND NOVEL BIOMARKERS IN THE DIAGNOSIS, CONFIRMATION, AND TREATMENT OF A NEUROLOGICAL DISORDER” (The Trustees of Columbia University in the City of New York, priority 2014, published 2017).

Columns and labels:
[1] = target: HLA class II allele DQB1*03:02 (human); assay: in vitro MHC class II-peptide binding assay
[2] = target: HLA class II allele DPB1*03:01 (human); assay: in vitro MHC class II-peptide binding assay

Row | Substance | IC50 [1] | IC50 [2]
1 | α-syn epitope 31…45 (SEQ ID NO: 59) (peptide) | 21.7 µM | 
2 | α-syn epitope 32…46 (SEQ ID NO: 34) (peptide) | 9.25 µM | 4.11 µM
